We go through 61 compounds from PubChem BioAssay AID602438 (Sanford-Burnham Center for Chemical Genomics, 2012).

Chains of the proteins cited; added tags and fusions are not shown.
UniProt O14786, whole entry: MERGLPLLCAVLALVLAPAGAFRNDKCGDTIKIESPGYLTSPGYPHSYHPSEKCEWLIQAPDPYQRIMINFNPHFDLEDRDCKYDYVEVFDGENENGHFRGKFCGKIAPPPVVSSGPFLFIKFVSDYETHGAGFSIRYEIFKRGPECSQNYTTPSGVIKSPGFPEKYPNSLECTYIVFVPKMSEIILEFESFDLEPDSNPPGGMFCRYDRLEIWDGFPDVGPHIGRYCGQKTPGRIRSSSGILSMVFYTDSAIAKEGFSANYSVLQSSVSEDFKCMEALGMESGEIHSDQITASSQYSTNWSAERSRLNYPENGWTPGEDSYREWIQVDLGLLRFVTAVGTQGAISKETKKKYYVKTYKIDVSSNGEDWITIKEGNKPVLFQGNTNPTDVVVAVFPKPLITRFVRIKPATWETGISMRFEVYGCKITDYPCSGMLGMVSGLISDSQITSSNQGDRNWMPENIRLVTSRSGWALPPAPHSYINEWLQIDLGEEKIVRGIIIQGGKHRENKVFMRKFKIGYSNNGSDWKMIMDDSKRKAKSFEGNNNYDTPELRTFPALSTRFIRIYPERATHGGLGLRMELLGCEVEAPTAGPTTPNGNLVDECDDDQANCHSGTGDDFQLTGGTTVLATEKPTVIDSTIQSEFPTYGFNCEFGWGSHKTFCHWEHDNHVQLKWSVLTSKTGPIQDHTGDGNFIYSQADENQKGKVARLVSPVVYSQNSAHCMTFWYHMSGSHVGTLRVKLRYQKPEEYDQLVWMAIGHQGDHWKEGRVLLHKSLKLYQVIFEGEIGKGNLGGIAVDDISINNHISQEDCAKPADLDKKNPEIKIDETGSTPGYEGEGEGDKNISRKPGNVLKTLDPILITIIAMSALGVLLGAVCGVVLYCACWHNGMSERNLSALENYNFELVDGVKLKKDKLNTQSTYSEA

Only a part is listed here, and it is no random draw. The source made the active and inactive calls.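 The calls were made as follows: active = inhibition or corrected inhibition above about 18%, plus a signal ratio from 0.5 to 1.5 (limit read from the data, passing the limit was not always enough); inactive = the rest.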

The target of this experiment is Neuropilin-1 (Homo sapiens) (UniProt O14786). The experiment in a line: modulators of CendR peptide binding to NRP-1, primary screen, biochemical, fluorescence polarization, uHTS (AID 602438). Conditions: FAM-RPARPAR peptide binding to NRP-1, fluorescence polarization; at 25 µM; hits give high values. (Fluorescence polarisation rises when a labelled molecule tumbles more slowly, as on binding a larger partner.)
For the compound `Cc1ccccc1NC1(C#N)CCN(Cc2ccccc2)CC1`, the inhibition (usually the drop in the measured response relative to a control, in per cent) was inactive: 5.9%.

With `CC(C)(C)n1nnnc1C(c1ccnc2ccccc12)N1CCC(n2c(=O)[nH]c3ccccc32)CC1` (stereo unspecified), the inhibition is inactive: 11.2%.

As to `COc1ccc(C(c2nnnn2C2CCCCC2)N2CCC(n3c(=O)[nH]c4ccccc43)CC2)cc1` (stereo unspecified), the inhibition was inactive: 13.1%.

In the case of `CCN1CCC(Nc2cccc(F)c2)CC1`, the inhibition was inactive: -11.4%.

Take `O=C(NCC1(N2CCCCC2)CCCCC1)c1ccco1`: the inhibition was inactive: -6%.

As for `Cn1c(=O)[nH]cc(N(CCCl)CCCl)c1=O`, the inhibition was inactive: 3.2%.

In the case of `CN(C)c1ccc(C(=O)NCC2(N3CCCCC3)CCCCC2)cc1`, the inhibition is inactive: -1.2%.

In the case of `O=c1[nH]c2ccccc2n1C1CCN(C(c2ccnc3ccccc23)c2nnnn2C2CCCCC2)CC1` (stereo unspecified), the inhibition was inactive: -3.7%.

As for `COc1cc(OC)cc(C(=O)NCC2(N3CCCCC3)CCCCC2)c1`, the inhibition was inactive: -11.3%.

Regarding `CC(=O)N(c1ccccc1)C1CCNCC1`, the inhibition was inactive: 9.4%.

For `COc1cccc(C(c2nnnn2C2CCCCC2)N2CCC(n3c(=O)[nH]c4ccccc43)CC2)c1OC` (stereo unspecified), the inhibition was inactive: 7.4%.

Turning to `CCC(c1nnnn1C1CCCCC1)N1CCC(n2c(=O)[nH]c3ccccc32)CC1` (stereo unspecified), the inhibition was inactive: -9.2%.

`Cc1ccc(NC2(C#N)CCN(Cc3ccccc3)CC2)cc1`: the inhibition was inactive: 8%.

`Cc1ccc(C(=O)NCC2(N3CCCCC3)CCCCC2)o1`: the inhibition was inactive: -3%.

As to `Fc1ccccc1NC1CCN(Cc2ccccc2)CC1`, the inhibition was inactive: 7%.

In the case of `CCC(CO)(C(=O)OC1CN2CCC1CC2)c1ccccc1` (stereo unspecified), the inhibition is inactive: -10.4%.

In the case of `COc1cc(OC)cc(C(=O)NCC2(N3CCOCC3)CCCCC2)c1`, the inhibition is inactive: 11.7%.

`COc1cccc(C(c2nnnn2C2CCCC2)N2CCC(n3c(=O)[nH]c4ccccc43)CC2)c1OC` (stereo unspecified): the inhibition was inactive: 3.3%.

In the case of `COc1cccc(C(=O)N(c2cc(C)cc(C)c2)C2CCN(C(=O)OC(C)(C)C)CC2)c1`, the inhibition is inactive: -4.2%.

For `CN1CCC(Nc2ccc(Cl)cc2)CC1`, the inhibition was inactive: 1.5%.

As to `CCOc1ncccc1C(=O)NCC1(N2CCOCC2)CCCCC1`, the inhibition was inactive: -2.9%.

In the case of `CN1CCC(Nc2ccc(F)c(Cl)c2)CC1`, the inhibition is inactive: 4.3%.

`CCCOc1ccc(C(=O)NCC2(N(C)C)CCCCC2)cc1`: the inhibition is inactive: 2.1%.

Consider `O=c1[nH]c2ccccc2n1C1CCN(C(c2cc3ccccc3o2)c2nnnn2C2CCCC2)CC1` (stereo unspecified), for which the inhibition was inactive: 9.1%.

On to `CC(C)(C)OC(=O)N1CCC(Nc2ccccc2)CC1`, for which the inhibition is inactive: 16.1%.

On to `O=C(O)C1(Nc2ccccc2)CCN(Cc2ccccc2)CC1`, for which the inhibition was inactive: -0.8%.

Turning to `NN(c1ccccc1)C1CCN(CCc2ccccc2)CC1`, the inhibition is inactive: -7.4%.

Consider `N/C(=N\O)c1c(N)no[n+]1[O-]`, for which the inhibition was inactive: -3%.

In the case of `COc1cccc(C(c2nnnn2C(C)(C)C)N2CCC(n3c(=O)[nH]c4ccccc43)CC2)c1OC` (stereo unspecified), the inhibition was inactive: -9.2%.

Regarding `CCOC(=O)N1CCC(Nc2ccc(C)cc2)CC1`, the inhibition is inactive: 8%.

On to `CCCCn1nnnc1C(c1cccc(OC)c1OC)N1CCC(n2c(=O)[nH]c3ccccc32)CC1` (stereo unspecified), for which the inhibition was inactive: 12.9%.

As to `O=C(OC1CN2CCC1CC2)C1c2ccccc2C=Cc2ccccc21` (stereo unspecified), the inhibition was inactive: 3%.

As to `O=c1[nH]c2ccccc2n1C1CCN(C(c2cccs2)c2nnnn2C2CCCC2)CC1` (stereo unspecified), the inhibition is inactive: 2.8%.

With `O=C(NCC1(N2CCOCC2)CCCCC1)c1cc(Br)ccc1Cl`, the inhibition is inactive: 2.2%.

Consider `CCCCn1nnnc1C(c1ccccc1)N1CCC(n2c(=O)[nH]c3ccccc32)CC1` (stereo unspecified), for which the inhibition was inactive: 12.8%.

For `COc1cc(C(=O)NCC2(N3CCOCC3)CCCCC2)cc(OC)c1C`, the inhibition was inactive: 9.7%.

For `COc1ccc(C(=O)NCC2(N3CCOCC3)CCCCC2)cc1OC`, the inhibition was inactive: 3.9%.

Take `O=c1[nH]c2ccccc2n1C1CCN(C(c2ccnc3ccccc23)c2nnnn2C2CCCC2)CC1` (stereo unspecified): the inhibition was inactive: -0.1%.

`O=c1[nH]c2ccccc2n1C1CCN(C(c2cccs2)c2nnnn2C2CCCCC2)CC1` (stereo unspecified): the inhibition was inactive: -9.7%.

With `c1ccc(CN2CCC(Nc3ccccc3)CC2)cc1`, the inhibition is inactive: 2.5%.

On to `O=c1[nH]c2ccccc2n1C1CCN(C(c2ccccc2)c2nnnn2C2CCCC2)CC1` (stereo unspecified), for which the inhibition was inactive: 2%.

As to `CCCN1CCC(Nc2cc(OC)cc(OC)c2)CC1`, the inhibition is inactive: 16%.

For `Cc1cc(N(CCCl)CCCl)ccc1C=O`, the inhibition is inactive: 15.6%.

For the compound `CN(C)C1(CNC(=O)c2cccc(C#N)c2)CCCCC1`, the inhibition was inactive: 8%.

As to `CC(C)(C)n1nnnc1C(c1cccc2ccccc12)N1CCC(n2c(=O)[nH]c3ccccc32)CC1` (stereo unspecified), the inhibition is inactive: 2.5%.

For `CC(C)(C)OC(=O)N1CCC(N(C(=O)c2ccccc2)c2ccc(Cl)cc2)CC1`, the inhibition was inactive: 6.5%.

Consider `N#Cc1ccc(C(=O)NCC2(N3CCCCC3)CCCCC2)cc1`, for which the inhibition is inactive: 14.8%.

In the case of `O=C(NCC1(N2CCCCC2)CCCCC1)c1cccc(C(F)(F)F)c1`, the inhibition is inactive: -1.9%.

Regarding `CCCCn1nnnc1C(c1cccc2ccccc12)N1CCC(n2c(=O)[nH]c3ccccc32)CC1` (stereo unspecified), the inhibition is inactive: -1.7%.

Regarding `CN1CCN(CCOC(=O)C(O)(c2ccccc2)c2ccccc2)CC1`, the inhibition was inactive: -5%.

With `COc1ccc(NC2CCN(C(=O)OC(C)(C)C)CC2)cc1`, the inhibition was inactive: -4%.

For `CC(C)c1ccc(C(=O)NCC2(N3CCOCC3)CCCCC2)cc1`, the inhibition was inactive: 6.3%.

For the compound `COc1cc(C(=O)NCC2(N3CCCCC3)CCCCC2)ccc1OC(F)F`, the inhibition was inactive: -7.5%.

For the compound `O=C(NCC1(N2CCOCC2)CCCCC1)c1cc(=O)[nH]c2ccccc12`, the inhibition was inactive: -9%.

In the case of `CC(C)(C)n1nnnc1C(c1ccccc1OC(F)(F)F)N1CCC(n2c(=O)[nH]c3ccccc32)CC1` (stereo unspecified), the inhibition was inactive: 5.2%.

`O=C(NCC1(N2CCCCC2)CCCCC1)c1ccc(OC(F)F)cc1`: the inhibition is inactive: 0.7%.

Turning to `O=C(NCC1(N2CCCCC2)CCCCC1)c1cccc([N+](=O)[O-])c1`, the inhibition was inactive: 1.2%.

For the compound `CSc1ccc(C(=O)NCC2(N3CCOCC3)CCCCC2)cc1`, the inhibition is inactive: -3%.

`CCN1CCC(Nc2ccc(Cl)cc2)CC1`: the inhibition was inactive: 10.6%.

As for `N#CC1(Nc2ccccc2)CCN(CCc2ccccc2)CC1`, the inhibition is inactive: 7.3%.

Regarding `O=c1[nH]c2ccccc2n1C1CCN(C(c2ccccc2OC(F)(F)F)c2nnnn2C2CCCC2)CC1` (stereo unspecified), the inhibition was inactive: -0.4%.
